From ChEMBL document CHEMBL1255455, “Biochemical study of a new inhibitor-resistant beta-lactamase, SHV-84, produced by a clinical Escherichia coli strain” (2010) come the findings set out here.

Substrate in data set [1]: CC(C)(O/N=C(\C(=O)N[C@@H]1C(=O)N2C(C(=O)[O-])=C(C[n+]3ccccc3)CS[C@H]12)c1csc(N)n1)C(=O)O
The experiment in a line: (§1) Activity at Escherichia coli beta-lactamase SHV-1.

Substrate in data set [2]: CC1(C)S[C@@H]2[C@H](NC(=O)[C@H](N)c3ccc(O)cc3)C(=O)N2[C@H]1C(=O)O
The description is as §1.

Substrate in data set [3]: CO/N=C(\C(=O)N[C@@H]1C(=O)N2C(C(=O)O)=C(COC(C)=O)CS[C@H]12)c1csc(N)n1
The description is as §1.

Substrate in data set [4]: CC(=O)OCC1=C(C(=O)O)N2C(=O)[C@@H](NC(=O)Cc3cccs3)[C@H]2SC1
The data set is described as follows: Ratio of Kcat to Km in Escherichia coli beta-lactamase SHV-1.

B1: Beta-lactamase SHV-1 (Escherichia coli), P0AD63 (protein)
chain: MRYIRLCIISLLATLPLAVHASPQPLEQIKLSESQLSGRVGMIEMDLASGRTLTAWRADERFPMMSTFKVVLCGAVLARVDAGDEQLERKIHYRQQDLVDYSPVSEKHLADGMTVGELCAAAITMSDNSAANLLLATVGGPAGLTAFLRQIGDNVTRLDRWETELNEALPGDARDTTTPASMAATLRKLLTSQRLSARSQRQLLQWMVDDRVAGPLIRSVLPAGWFIADKTGAGERGARGIVALLGPNNKAERIVVIYLRDTPASMAERNQQIAGIGAALIEHWQR
By Km is commonly meant the concentration of substrate that gives half-maximal velocity. One may read the kcat as the number of substrate molecules converted per active site and unit of time at saturation. A word on the kcat/Km: it is the second-order rate constant that governs catalysis at low substrate concentration. With B1, the Michaelis constant (Km) in data set [1] was found to be 142 µM; in data set [3], 257 µM. Moreover, in data set [2], the kcat was found to be 1040 s⁻¹. In addition, the specificity constant (kcat/Km) in data set [4] was determined as 3.2e+06 M⁻¹ s⁻¹.
